The text below walks through data of patent US20120184583A1, “MODULATORS OF ATP-BINDING CASSETTE TRANSPORTERS” (VERTEX PHARMACEUTICALS INCORPORATED, priority 2003, published 2012).

Protein sequences, listed by entry. Tags and fused reporters are not part of them. Lines headed by an entry give the natural chain unless they say otherwise; changes in a name come on top. Chains listed by the source or under a name are the forms on record and can include a tag or linker.
UniProt P13569, with tags, fused parts or gaps DEL508-508: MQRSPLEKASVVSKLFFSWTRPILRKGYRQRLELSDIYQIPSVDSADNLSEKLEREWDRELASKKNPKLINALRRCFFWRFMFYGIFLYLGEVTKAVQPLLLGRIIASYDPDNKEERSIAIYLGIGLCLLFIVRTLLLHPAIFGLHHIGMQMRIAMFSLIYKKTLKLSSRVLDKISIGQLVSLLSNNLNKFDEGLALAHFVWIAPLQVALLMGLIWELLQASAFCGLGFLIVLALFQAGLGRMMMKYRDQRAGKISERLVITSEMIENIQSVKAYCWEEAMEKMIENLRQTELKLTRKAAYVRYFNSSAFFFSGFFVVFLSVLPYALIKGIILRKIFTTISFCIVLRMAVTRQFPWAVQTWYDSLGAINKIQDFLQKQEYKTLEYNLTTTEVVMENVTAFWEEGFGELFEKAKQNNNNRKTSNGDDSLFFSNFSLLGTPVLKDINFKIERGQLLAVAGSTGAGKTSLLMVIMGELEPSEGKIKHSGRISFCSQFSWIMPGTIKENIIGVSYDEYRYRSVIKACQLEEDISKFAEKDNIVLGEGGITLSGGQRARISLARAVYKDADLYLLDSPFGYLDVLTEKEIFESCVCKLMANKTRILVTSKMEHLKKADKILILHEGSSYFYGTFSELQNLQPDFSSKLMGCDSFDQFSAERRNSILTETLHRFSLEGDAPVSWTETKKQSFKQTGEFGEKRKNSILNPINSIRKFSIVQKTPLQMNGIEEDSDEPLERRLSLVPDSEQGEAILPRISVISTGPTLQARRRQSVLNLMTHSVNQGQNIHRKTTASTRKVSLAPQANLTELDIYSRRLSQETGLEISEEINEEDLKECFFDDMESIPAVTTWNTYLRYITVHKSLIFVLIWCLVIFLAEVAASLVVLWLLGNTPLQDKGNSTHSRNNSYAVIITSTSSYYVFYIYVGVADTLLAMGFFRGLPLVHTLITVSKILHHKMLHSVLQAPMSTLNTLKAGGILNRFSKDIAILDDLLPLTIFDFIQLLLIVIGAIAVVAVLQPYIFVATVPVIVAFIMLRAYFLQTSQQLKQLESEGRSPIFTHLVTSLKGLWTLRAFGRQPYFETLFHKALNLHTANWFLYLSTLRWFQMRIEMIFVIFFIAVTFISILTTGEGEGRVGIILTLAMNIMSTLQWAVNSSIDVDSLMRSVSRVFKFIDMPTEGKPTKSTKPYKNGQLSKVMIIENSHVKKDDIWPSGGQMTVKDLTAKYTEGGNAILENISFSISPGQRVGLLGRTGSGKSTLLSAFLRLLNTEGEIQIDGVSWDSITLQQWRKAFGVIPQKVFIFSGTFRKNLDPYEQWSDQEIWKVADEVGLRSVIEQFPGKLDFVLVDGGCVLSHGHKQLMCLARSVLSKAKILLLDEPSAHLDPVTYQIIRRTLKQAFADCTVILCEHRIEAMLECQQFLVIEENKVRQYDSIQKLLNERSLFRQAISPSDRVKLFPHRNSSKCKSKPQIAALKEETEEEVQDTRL

Experiment [1] has as its target T1, ΔF508-CFTR expressed in FRT epithelial cells (Homo sapiens, UniProt P13569, DEL508-508).
T1 construct: expressed in transfected cells; host or cells: Fisher rat epithelial (FRT) cells, vector-infected
Put plainly: Ussing chamber assay, short-circuit current in FRT epithelia. In kind it is cell-based. The following applies: in the presence of 10 μM forskolin; read-out: EC50 of dose-dependent increase in ISC.

The target in experiment [2] is T2, ΔF508-CFTR stably expressed in NIH3T3 cells (Homo sapiens, UniProt P13569, DEL508-508).
T2 construct: expressed in transfected cells
Put plainly: Membrane potential optical (FRET/VIPR) assay for ΔF508-CFTR potentiation. The class given is cell-based. To be noted: potentiation of forskolin-induced response, n=35. The source says: Membrane potential optical methods for assaying ΔF508-CFTR potentiation properties of compounds.
These voltage sensitive assays are based on the change in fluorescence resonant energy transfer (FRET) between the membrane-soluble, voltage-sensitive dye, DiSBAC2(3), and a fluorescent phospholipid, CC2-DMPE, which is attached to the outer leaflet of the plasma membrane and acts as a FRET donor. Changes in membrane potential (Vm) cause the negatively charged DiSBAC2(3) to redistribute across the plasma membrane and the amount of energy transfer from CC2-DMPE changes accordingly. The changes in fluorescence emission were monitored using VIPR™ II, which is an integrated liquid handler and fluorescent detector designed to conduct cell-based screens in 96- or 384-well microtiter plates.
To identify potentiators of ΔF508-CFTR, a double-addition HTS assay format was developed (FIG. 1A). During the first addition, a Cl^−-free medium with or without test compound was added to each well. After 22 sec, a second addition of Cl^−-free medium containing 2-10 μM forskolin was added to activate ΔF508-CFTR. The extracellular Cl^− concentration following both additions was 28 mM, which promoted Cl^− efflux in response to ΔF508-CFTR activation and the resulting membrane depolarization was optically monitored using the FRET-based voltage-sensor dyes. The double-addition format has several advantages. […]

One may read the EC50 as the concentration at which the effect is half-maximal. On to `O=c1c(-c2ccc(O)cc2)coc2cc(O)cc(O)c12` [genistein, reference compound], for which the EC50 stood at 21.2 ± 0.49 µM in experiment [1] and 19.2 ± 1.9 µM in experiment [2].
